Values quoted from earlier work, collected in article PMC4490394 (Scientific Reports, 2015).

Tested on: testosterone
Details: plasma and bone marrow ref 36; cited from earlier work

CNC(=O)c1ccc(N2C(=S)N(c3ccc(C#N)c(C(F)(F)F)c3)C(=O)C2(C)C)cc1F [Enzalutamide, enzalutamide, reference compound]
testosterone levels in treated CRPC patients: increased levels of testosterone in plasma and bone marrow
